# Membrane permeability of cyclic peptides

Values of Townsend et al. 2020, doi:10.26434/chemrxiv.13335941.v1, as listed in CycPeptMPDB.

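Conditions beyond the assay type are not listed; see the original paper. The list need not hold all peptides of the study. Peptides that the database sets to -10, its floor, are left out.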

PAMPA is the parallel artificial membrane permeability assay, which has no cells and reads passive diffusion. Permeability is in 10^-6 cm/s, converted from the database's log10 values; higher is more permeable.

| SMILES | PAMPA (10^-6 cm/s) |
|---|---|
| CC(C)C[C@@H]1C(=O)N(C)[C@@H](CC(C)C)C(=O)N2CCC[C@@H]2C(=O)N(C)[C@@H](CC(C)C)C(=O)N[C@@H](Cc2ccccc2)C(=O)N2CCC[C@@H]2C(=O)N(C)[C@@H](C)C(=O)N1C | 11 |
| CC(C)C[C@@H]1C(=O)N(C)[C@@H](CC(C)C)C(=O)N2CCC[C@H]2C(=O)N(Cc2ccccc2)CC(=O)N[C@@H](Cc2ccccc2)C(=O)N2CCC[C@H]2C(=O)N[C@@H](C)C(=O)N1C | 1.8 |
| CC(C)C[C@@H]1C(=O)N[C@H](CC(C)C)C(=O)N2CCC[C@H]2C(=O)N(C)[C@@H](CC(C)C)C(=O)N[C@@H](Cc2ccccc2)C(=O)N2CCC[C@H]2C(=O)N[C@@H](C)C(=O)N1C | 1.3 |
| CC(C)C[C@@H]1C(=O)N[C@H](CC(C)C)C(=O)N2CCC[C@@H]2C(=O)N[C@H](CC(C)C)C(=O)N[C@@H](Cc2ccccc2)C(=O)N2CCC[C@@H]2C(=O)N(C)[C@H](C)C(=O)N1C | 0.6 |
| CC(C)C[C@@H]1C(=O)N2CCC[C@H]2C(=O)N(C)[C@@H](CC(C)C)C(=O)N[C@@H](Cc2ccccc2)C(=O)N[C@H](C)C(=O)N(C)[C@H](CC(C)C)C(=O)N1C | 4.5 |
| CC(C)C[C@@H]1NC(=O)[C@@H](CC(C)C)N(C)C(=O)[C@H](C)N(C)C(=O)[C@@H]2CCCN2C(=O)[C@H](Cc2ccccc2)NC(=O)[C@@H](CC(C)C)NC(=O)[C@H]2CCCN2C1=O | 1.1 |
| CC(C)C[C@@H]1NC(=O)[C@@H]2CCCN2C(=O)C[C@H](Cc2ccccc2)NC(=O)[C@@H](CC(C)C)N(C)C(=O)[C@@H](C)N(C)C(=O)[C@H](Cc2ccccc2)NC1=O | 3.8 |